Measurements from patent publication US8546443B2, “Benzylic oxindole pyrimidines” (Boehringer Ingelheim International GmbH, priority 2010, dated 2013).

By UniProt entry, the sequences of proteins in these tests, tags left out. Residues count along the entry.
UniProt P08069, 964-1367 limits assumed: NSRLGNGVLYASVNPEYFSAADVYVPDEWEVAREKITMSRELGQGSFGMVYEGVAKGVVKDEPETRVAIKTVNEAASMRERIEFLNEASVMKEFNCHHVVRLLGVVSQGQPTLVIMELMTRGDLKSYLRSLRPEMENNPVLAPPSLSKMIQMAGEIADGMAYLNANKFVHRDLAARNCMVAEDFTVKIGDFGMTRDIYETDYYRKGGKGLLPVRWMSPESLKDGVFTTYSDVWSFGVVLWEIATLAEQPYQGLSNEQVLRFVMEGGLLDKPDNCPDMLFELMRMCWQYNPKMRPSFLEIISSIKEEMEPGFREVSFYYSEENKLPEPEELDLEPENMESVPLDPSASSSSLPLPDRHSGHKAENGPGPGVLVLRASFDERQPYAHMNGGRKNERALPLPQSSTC

Target: cytoplasmic kinase domain of human IGF-1R (IGF-1R-GST) (Homo sapiens, UniProt P08069)
Experiment: Insulin-like growth factor-1 receptor (IGF-1R) kinase assay (DELFIA)
Details: read-out: IGF1R IC50, IGF-1R-GST kinase activity

SMILES	IC50 [nM]
COc1cc(C2CCNCC2)ccc1Nc1ncc(C(F)(F)F)c(NCc2cccc3c2C(C)(C)C(=O)N3)n1	0.2
CCOc1cc(N2CCNCC2)ccc1Nc1ncc(C(F)(F)F)c(NCc2cccc3c2CC(=O)N3)n1	3
COc1cc(C2CCCN(CCO)C2)ccc1Nc1ncc(Br)c(NCc2cccc3c2C(C)(C)C(=O)N3)n1 (racemic)	0.4
